The assay has as its target SCD1 (Mus musculus, UniProt P13516). Briefly: SCD assay: release of tritiated water from desaturation of 9,10-3H-stearoyl CoA by mouse liver microsomes. As to conditions: read-out: IC50 (in vitro inhibition of SCD1); mouse liver microsomes as SCD source; 300 nM (9,10)3H-stearoyl CoA; 25 minutes at room temperature. An excerpt: Stearoyl CoA desaturase activity was monitored by a modification of the acyl carrier protein assay described by B. R. Talamo and K. Bloch in Anal. Biochem. 1968, 29, 300-304. The SCD assay monitors the release of tritiated water from the desaturation of 9,10-^3H-stearoyl CoA.
Mouse liver microsomes, prepared from mice fed a high-carbohydrate diet, were a source of the SCD and cyt b5 and cyt b5 reductase, necessary accessory proteins for the coupled reaction. Reaction mixtures for compound titrations contained 50 mM Tris HCl pH 7.5, 100 mM NaCl, 0.165 mg/ml BSA, 2.4% DMSO, 1 mM NADH, 0.03% T-20, and 300 nM (9,10)^3H-stearoyl CoA (Perkin-Elmer). Reactions were initiated upon the addition of 4 ug/ml SCD microsomes. Incubations were terminated after 25 minutes at room temperature with cold 6% TCA. After standing 10 minutes at 4° C., samples were centrifuged 15 minutes at 4000 rpm to pellet precipitated protein. Supernatants were added to microtiter plates containing suspensions of activated charcoal (Darco G-60, Fisher Scientific) and mixed by inversion. […] Supernatants were quantitated in a Perkin Elmer Topcount 384 after solubilization in ScintiSafe Plus 50% (Fisher Scientific).
Inhibition (%) of SCD activity by compounds was calculated according to the following formula: % Inhibition=100*[1−(CPMsample−CPMblank)/(CPMtotal−CPMblank)]

Sequences of proteins named here, by UniProt entry; tags and fusion partners are left off.
UniProt P13516, whole entry: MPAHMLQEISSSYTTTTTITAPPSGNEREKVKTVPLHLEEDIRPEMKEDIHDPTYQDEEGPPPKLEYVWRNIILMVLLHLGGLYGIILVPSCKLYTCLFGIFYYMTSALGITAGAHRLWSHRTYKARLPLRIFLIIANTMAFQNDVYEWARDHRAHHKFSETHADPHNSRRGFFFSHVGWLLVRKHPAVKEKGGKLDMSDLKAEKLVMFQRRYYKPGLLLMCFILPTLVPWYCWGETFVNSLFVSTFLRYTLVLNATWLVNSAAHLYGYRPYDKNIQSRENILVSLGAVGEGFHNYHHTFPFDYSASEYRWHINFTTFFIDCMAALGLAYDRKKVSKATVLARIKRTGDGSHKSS

What is called IC50 is the concentration that inhibits the measured activity by half.

`NC(=O)c1cc(-c2ccc(COc3ccccc3Cl)cc2)no1`: the IC50 was 100 nM.
